Experiments:
Format in all cases: cell-based
Design in all cases: scale not given: the % may be the effect or the level left
[1] = target: P2Y purinoceptor 1 (Meleagris gallopavo) (UniProt P49652); test: Antagonist activity at Meleagris P2Y1R expressed in human 1321N1 cells assessed as inhibition of […] calcium mobilization at 100 uM by FLIPR assay relative to control
[2] = target: P2Y purinoceptor 2 (Homo sapiens) (UniProt P41231); test: Antagonist activity at human P2Y2R expressed in human 1321N1 cells assessed as inhibition of […] calcium mobilization at 100 uM by FLIPR assay relative to control
[3] = target: P2Y purinoceptor 4 (Homo sapiens) (UniProt P51582); test: Antagonist activity at human P2Y4R expressed in human 1321N1 cells assessed as inhibition of […] calcium mobilization at 100 uM by FLIPR assay relative to control

Chains of the proteins cited; added tags and fusions are not shown. Lines headed by an entry give the natural chain unless they say otherwise; changes in a name come on top.
UniProt P49652: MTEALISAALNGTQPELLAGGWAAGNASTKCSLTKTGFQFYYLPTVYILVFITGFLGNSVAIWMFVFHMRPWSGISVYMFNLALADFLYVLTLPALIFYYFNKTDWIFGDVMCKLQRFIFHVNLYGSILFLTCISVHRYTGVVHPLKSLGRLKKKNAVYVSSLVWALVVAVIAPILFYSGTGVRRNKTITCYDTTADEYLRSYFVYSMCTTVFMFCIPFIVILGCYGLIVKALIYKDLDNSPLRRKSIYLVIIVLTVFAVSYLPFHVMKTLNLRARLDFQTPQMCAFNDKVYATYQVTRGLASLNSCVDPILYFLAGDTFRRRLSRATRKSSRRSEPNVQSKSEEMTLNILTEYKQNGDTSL
UniProt P41231: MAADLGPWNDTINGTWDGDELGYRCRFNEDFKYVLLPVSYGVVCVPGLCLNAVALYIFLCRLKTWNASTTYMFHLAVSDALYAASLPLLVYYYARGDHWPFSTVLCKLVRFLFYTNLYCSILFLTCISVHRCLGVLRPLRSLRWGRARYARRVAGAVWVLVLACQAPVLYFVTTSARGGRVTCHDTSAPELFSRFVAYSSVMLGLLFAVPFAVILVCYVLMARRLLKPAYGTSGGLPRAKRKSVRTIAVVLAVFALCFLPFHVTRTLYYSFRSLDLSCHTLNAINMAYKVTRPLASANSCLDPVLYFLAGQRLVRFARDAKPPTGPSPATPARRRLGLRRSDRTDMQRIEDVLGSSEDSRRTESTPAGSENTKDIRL
UniProt P51582: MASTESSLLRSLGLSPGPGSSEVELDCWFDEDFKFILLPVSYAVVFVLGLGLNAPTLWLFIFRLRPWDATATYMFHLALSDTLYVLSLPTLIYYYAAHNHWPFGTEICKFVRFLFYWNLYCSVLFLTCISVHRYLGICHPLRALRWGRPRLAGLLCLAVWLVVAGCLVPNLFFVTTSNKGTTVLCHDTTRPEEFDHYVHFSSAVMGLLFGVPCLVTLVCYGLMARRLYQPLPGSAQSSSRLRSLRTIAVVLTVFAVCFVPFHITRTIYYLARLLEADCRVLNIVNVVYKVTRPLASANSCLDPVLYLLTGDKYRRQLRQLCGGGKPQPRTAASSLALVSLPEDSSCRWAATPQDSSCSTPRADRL

Measured: Activity

O=[N+]([O-])C1=Cc2cc(F)ccc2OC1C(F)(F)F (racemic)
< 30%: all assays above

— ChEMBL document CHEMBL5223123, “Synthesis and pharmacological characterization of multiply substituted 2H-chromene derivatives as P2Y6 receptor antagonists” (Bioorg Med Chem Lett, 2022)
